Earlier results on 1 substance are cited in patent publication US20070087364A1, “In vitro erythroid micronucleus assay for genotoxicity” (Massachusetts Institute of Technology, priority 2005, published 2007).

This data set relates to bone marrow PCEs (reticulocytes). To be noted: general statement on the model genotoxicants; cited from earlier work.

On to N-methyl-N-nitro-N-nitrosoguanidine, for which the “result in the in vivo MN assay” value was “test positive”.
